{"source": "patent US8884023B2", "about": "“Pyrano [3,2-D][1,3]thiazole as glycosidase inhibitors” (priority 2011, dated 2014)", "target": "T1, His-Tagged hOGA (human O-GlcNAcase) (Homo sapiens, UniProt O60502)", "T1 sequence (O60502 1-916)": "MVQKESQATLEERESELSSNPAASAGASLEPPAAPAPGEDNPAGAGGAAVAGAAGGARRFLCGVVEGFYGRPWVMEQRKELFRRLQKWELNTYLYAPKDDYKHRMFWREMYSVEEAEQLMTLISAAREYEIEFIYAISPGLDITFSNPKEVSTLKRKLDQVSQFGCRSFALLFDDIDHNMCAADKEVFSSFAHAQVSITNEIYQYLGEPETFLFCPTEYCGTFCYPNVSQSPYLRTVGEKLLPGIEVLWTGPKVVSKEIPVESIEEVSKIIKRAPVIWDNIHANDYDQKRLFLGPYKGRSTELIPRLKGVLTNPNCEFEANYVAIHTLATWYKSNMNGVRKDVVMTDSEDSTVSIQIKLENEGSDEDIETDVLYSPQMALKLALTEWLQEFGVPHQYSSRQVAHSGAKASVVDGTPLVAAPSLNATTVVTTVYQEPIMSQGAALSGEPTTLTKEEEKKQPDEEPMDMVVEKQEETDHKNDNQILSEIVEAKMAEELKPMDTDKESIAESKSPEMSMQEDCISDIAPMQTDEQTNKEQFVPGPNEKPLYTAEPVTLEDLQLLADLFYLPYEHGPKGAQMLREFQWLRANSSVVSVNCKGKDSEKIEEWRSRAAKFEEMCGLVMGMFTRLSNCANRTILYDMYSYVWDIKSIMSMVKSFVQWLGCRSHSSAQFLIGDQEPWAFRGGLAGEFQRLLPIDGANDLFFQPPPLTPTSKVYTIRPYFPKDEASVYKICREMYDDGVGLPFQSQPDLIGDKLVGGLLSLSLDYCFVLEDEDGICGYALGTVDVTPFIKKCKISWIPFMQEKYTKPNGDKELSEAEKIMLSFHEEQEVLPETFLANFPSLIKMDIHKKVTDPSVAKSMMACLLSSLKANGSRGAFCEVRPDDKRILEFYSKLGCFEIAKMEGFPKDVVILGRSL", "assay": "biochemical", "procedure": "Human O-GlcNAcase Enzyme Inhibition Assay\nThe following reaction components were added to a final volume of 10 μL in McIlvaine's Buffer (pH 6.5):\n20 nM His-Tagged hOGA and 10 μM Fluoroscein mono-beta-D-(2-deoxy-2-N-acetyl) glucopyranoside (FL-GlcNAc; Marker Gene Technologies Inc, Part #M1485). […] The amount of fluorescence measured was plotted against the concentration of inhibitor to produce a sigmoidal dose response curve, from which an IC50 was calculated.", "data": [{"compound": "CCNC1=N[C@@H]2[C@@H](O)[C@H](O)[C@@H](CN=[N+]=[N-])O[C@@H]2S1", "note": "[compound no. 1, (3aR,5R,6S,7R,7aR)-5-(azidomethyl)-2-(ethylamino)-5,6,7,7a-tetrahydro-3aH-pyrano[3,2-d][1,3]thiazole-6,7-diol]", "values": [{"measurement": "IC50", "result": "< 0.1", "unit": "µM"}]}]}
